Values quoted from earlier work, collected in publication PMC4230996 (Journal of Medicinal Chemistry, 2014).

Tested on: human mGlu4
Conditions: read-out: IC50 (binding affinity to mGlu4); human mGlu4, Merck's patent; cited from earlier work

In the case of O=C(Nc1ccc(N2C(=O)c3cccc(F)c3C2=O)c(Cl)c1)c1ccccn1 [Compound 3, N-(3-Chloro-4-(4-fluoro-1,3-dioxoisoindolin-2-yl)phenyl)-2-picolinamide], the IC50 is given as 36 nM.
